# Source: patent publication US7605231B2, “Gelatin derivatives and high-molecular micelle comprising the derivatives” (NOF Corporation, priority 2002, dated 2009)
# Assay: Critical micelle formation concentration (CMC) by PNA incorporation
# Type: physicochemical
# Conditions: isotonic phosphate buffer pH 7.4, PNA incorporation
# Procedure: With regard to the PEG-grafted gelatin prepared, the critical micelle formation concentration (CMC) was measured. The CMC was measured by incorporating N-phenyl-1-naphtylamine (PNA) into the micelle. Using an isotonic phosphate buffer with a pH of 7.4, various concentrations—having PEG-grafted gelatin aqueous solutions were prepared. 0.1 ml of the PNA solution dissolved in methanol having a concentration of 5.0×10^−3M was added to 2 ml of the PEG-grafted gelatin solution and stirred for 2 minutes. Thereafter, the absorbance at a wavelength of 500 nm was measured using a spectrophotometer.
# With regard to the PEG-grafted succinated gelatin prepared, the critical micelle forming concentration (CMC) was measured. The CMC was measured by incorporating N-phenyl-1-naphtyl amine (PNA) into the micelle. Using an isotonic phosphate buffer with a pH of 7.4, PEG-grafted succinated gelatin aqueous solutions with various concentrations were prepared. […] Thereafter, the absorbance at a wavelength of 500 nm was measured using a spectrophotometer.
# Micelle solutions were prepared in accordance with the method of Example 3 from the PEG-grafted gelatin derivatives prepared in Example 22 and the CMC of each derivative was measured in accordance with Example 5.
substance,measurement,value
methoxy polyethylene glycol succinimidyl succinate [SUNBRIGHT MEC-50HS],CMC (whether admitted),CMC was not admitted
